This note sets out measurements from patent US11684676B2, “Site-specific antibody-drug conjugates by ADP-ribosyl cyclases” (University of Southern California, priority 2020, dated 2023).

For data set [1], the system named is luciferase-expressing U937 cells. Nature of the data set: In vivo efficacy study in AML mouse xenograft. Also noted: species or system mice. The method, then:
Female NOD. Cg-Prkdc^scid Il2rg^tm1Wj1/SzJ (NSG) mice at age of 6 weeks were purchased from the Jackson Laboratory (ME, USA). Each mouse was inoculated with 1 million luciferase expressing U937 cells in 200 μL DPBS by tail vein I.V. injection. On day 2 post U937 cells implantation, mice were randomized into 5 per group and given 150 mg kg^−1 of D-luciferin (Syd Labs, MA, USA), followed by imaging using an IVIS Lumina III Imaging System (PerkinElmer, MA, USA) for luminescence generated by luciferase-expressing U937 cells. […] In order to conduct both the interim efficacy analysis (when conditions of control group mice reach the endpoint per IACUC protocol) based on tissue sample analysis by flow cytometry as well as study for survival difference between groups, 2 groups of mice were given treatment option (3), (4), (5) or (6) with one group for interim efficacy analysis while the other group for survival analysis. Since the completion of first IVIS imaging, all live mice were continued to be imaged by IVIS weekly.
When mice in the control group (treatment option (1)) reached the humane endpoint, they were euthanized together with other groups of mice given the treatment option (2)-(6). Blood, spleen, and bone marrow samples were collected from each group, and samples were prepared into single cell suspension with red blood cells lysed by red blood cell lysis buffer (Biolegend, CA, USA) in DPBS containing 2% FBS. […] All samples were acquired by a BD LSRFortessa X-20 Cell Analyzer (CA, USA) and analyzed by FACSDiva and FlowJo software. Data for blood samples were first gated based on morphology (FSC-A/SSC-A) for peripheral blood myeloid cell population and then all live cells (propidium iodide-staining negative) populations were analyzed on fluorescence intensities of different antibodies used for staining. Data for spleen and bone marrow samples were first gated based on morphology (FSC-A/SSC-A) to remove non-cell debris, and then all live cells (propidium iodide-staining negative) populations were analyzed on fluorescence intensities of different antibodies used for staining.

A short description of data set [2]: ADP-ribosyl cyclase activities of anti-hCLL-1-CD38 fusions. The format is biochemical. The following applies: versus recombinant human CD38 extracellular domain; NGD+ 100 μM. As to the method: ADP-Ribosyl Cyclase Activities.
The rate of cyclic guanine dinucleotide phosphate-ribose (cGDPR) generation was monitored by a Synergy H1 plate reader (BioTek, VT, USA) for its signature fluorescence (excitation at 300 nm; emission at 410 nm) for 5 minutes.

B1: DAR4-ARC-IgG: anti-hCLL-1 antibody 1075.7 with CD38 fused to C-termini of heavy and light chains (antibody)
heavy: DIQLQESGPGLVKPSQSLSLTCSVTGYSITSAYYWNWIRQFPGNKLEWMGYISYDGRNNYNPSLKNRISITRDTSKNQFFLKLNSVTTEDTATYYCAKEGDYDVGNYYAMDYWGQGTSVTVSSARTKGPSVFPLAPSSKSTSGGTAALGCLVKDYFPEPVTVSWNSGALTSGVHTFPAVLQSSGLYSLSSVVTVPSSSLGTQTYICNVNHKPSNTKVDKKV[about 500 residues with a human IgG1 Fc skipped]
light: ENVLTQSPAIMSASPGEKVTMTCRASSNVISSYVHWYQQRSGASPKLWIYSTSNLASGVPARFSGSGSGTSYSLTISSVEAEDAATYYCQQYSGYPLTFGAGTKLELKRAAAAPSVFIFPPSDEQLKSGTASVVCLLNNFYPREAKVQWKVDNALQSGNSQESVTEQDSKDSTYSLSSTLTLSKADYEKHKVYACEVTHQGLSSPVTKSFNRGECGGGGS[about 250 residues skipped]
In data set [1] (5 mg/kg), B1 displayed a median survival of 13 days. In data set [1] (5 mg/kg every 72 hours, 3 times i.v.), the “proliferation of engrafted U937 cells (IVIS luminescence)” value is “rapid proliferation of U937 cells”. The “levels of engrafted U937 cells in bone marrow, spleen, and blood” value in data set [1] (5 mg/kg, day 13, flow cytometry) is “higher levels of engrafted U937 cells”. For the same molecule, the catalytic activity result in data set [2] is given as “significantly higher catalytic activities”.
